Reference: PMC5796218 (International Journal of Molecular Sciences, 2018)
Counter-ions that a name gives are not always drawn.

Amino acid sequences for entries named in this document (tags omitted). A change or cut given only in a name is not applied to a line headed by its entry.
UniProt P35367: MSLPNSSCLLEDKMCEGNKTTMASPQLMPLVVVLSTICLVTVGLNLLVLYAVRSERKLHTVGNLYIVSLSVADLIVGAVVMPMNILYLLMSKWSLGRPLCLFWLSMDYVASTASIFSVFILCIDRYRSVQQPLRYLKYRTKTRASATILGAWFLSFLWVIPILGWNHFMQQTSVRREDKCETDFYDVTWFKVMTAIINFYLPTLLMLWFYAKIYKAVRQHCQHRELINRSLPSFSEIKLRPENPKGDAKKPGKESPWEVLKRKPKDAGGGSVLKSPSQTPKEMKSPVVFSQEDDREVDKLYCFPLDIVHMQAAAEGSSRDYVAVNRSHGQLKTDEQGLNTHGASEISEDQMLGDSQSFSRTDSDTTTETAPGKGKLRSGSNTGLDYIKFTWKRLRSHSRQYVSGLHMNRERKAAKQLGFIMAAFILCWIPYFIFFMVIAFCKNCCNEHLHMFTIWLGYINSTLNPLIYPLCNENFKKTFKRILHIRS
UniProt P07550: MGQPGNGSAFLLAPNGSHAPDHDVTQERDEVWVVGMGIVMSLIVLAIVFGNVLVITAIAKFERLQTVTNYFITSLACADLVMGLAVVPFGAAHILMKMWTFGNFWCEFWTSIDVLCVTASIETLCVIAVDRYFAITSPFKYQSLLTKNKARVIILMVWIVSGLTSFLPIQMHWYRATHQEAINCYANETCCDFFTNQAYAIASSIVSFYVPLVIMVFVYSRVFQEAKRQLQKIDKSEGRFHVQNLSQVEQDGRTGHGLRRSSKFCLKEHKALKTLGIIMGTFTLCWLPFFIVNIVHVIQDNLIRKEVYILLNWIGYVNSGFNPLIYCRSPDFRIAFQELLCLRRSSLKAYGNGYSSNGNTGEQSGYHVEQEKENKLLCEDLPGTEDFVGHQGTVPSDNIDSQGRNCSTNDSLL

What was measured:
[1] = target: HIST 177–183 peptide (histamine 1 receptor) (Homo sapiens, UniProt P35367); experiment: biochemical
[2] = target: HIST 166–172 peptide (histamine 1 receptor) (Homo sapiens, UniProt P35367); details: read-out: Kd (µM) @ 200 nm, low-affinity component
[3] = target: B2AR 175–188 peptide (β-2-adrenergic receptor) (Homo sapiens, UniProt P07550); experiment: biochemical

## CN1CC[C@]23c4c5ccc(O)c4O[C@H]2[C@@H](O)C=C[C@H]3[C@H]1C5 [Morph, morphine sulfate]
[1]
  Kd: 30 µM
[2]
  Kd: 30 µM
[3]
  Kd: 50 µM
